# Assay results taken from ChEMBL document CHEMBL1128269, “Synthesis and biological evaluation of NK1 antagonists derived from L-tryptophan” (J Med Chem, 1995).
# Sequences of proteins named here, by UniProt entry; tags and fusion partners are left off.
# UniProt P25103, whole entry: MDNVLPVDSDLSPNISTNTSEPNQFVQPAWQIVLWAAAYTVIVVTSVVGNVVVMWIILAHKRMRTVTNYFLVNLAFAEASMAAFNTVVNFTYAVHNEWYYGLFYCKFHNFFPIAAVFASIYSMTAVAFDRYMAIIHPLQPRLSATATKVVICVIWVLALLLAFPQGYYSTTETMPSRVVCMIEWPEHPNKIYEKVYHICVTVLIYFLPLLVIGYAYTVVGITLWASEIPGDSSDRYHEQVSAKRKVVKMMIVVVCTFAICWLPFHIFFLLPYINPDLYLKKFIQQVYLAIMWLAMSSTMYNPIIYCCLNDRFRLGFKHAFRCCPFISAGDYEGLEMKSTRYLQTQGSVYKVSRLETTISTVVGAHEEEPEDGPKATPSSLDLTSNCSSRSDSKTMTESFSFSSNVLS
# UniProt P25103, whole entry Q165A: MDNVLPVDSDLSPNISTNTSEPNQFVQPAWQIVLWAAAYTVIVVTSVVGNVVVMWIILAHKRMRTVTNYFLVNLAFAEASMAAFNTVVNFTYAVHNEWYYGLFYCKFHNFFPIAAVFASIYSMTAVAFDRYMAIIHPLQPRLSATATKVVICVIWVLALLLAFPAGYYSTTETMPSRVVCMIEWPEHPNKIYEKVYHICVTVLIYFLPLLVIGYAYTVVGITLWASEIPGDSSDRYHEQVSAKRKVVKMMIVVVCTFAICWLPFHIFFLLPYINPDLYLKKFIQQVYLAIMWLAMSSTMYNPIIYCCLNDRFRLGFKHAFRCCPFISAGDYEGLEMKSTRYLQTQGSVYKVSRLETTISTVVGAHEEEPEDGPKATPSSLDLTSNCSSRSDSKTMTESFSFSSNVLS
# How the values were obtained:
# Format in all cases: cell-based
# Substance-P receptor [1] = biological target: T1, Substance-P receptor (Homo sapiens, UniProt P25103); experiment: Binding affinity against human Tachykinin receptor 1 expressed in CHO cells was measured by its ability to displace [125I]- Tyr-8 substance P.
# Substance-P receptor [2] = biological target: Substance-P receptor (Homo sapiens, UniProt P25103, Q165A); experiment: Binding affinity against Gln165Ala mutant type human Tachykinin receptor 1 expressed in CHO cells was measured by its ability to displace [125I]- Tyr-8 substance P.
# Substance-P receptor [3] = biological target: T1, Substance-P receptor; experiment: Binding affinity against wild type human Tachykinin receptor 1 expressed in CHO cells was measured by its ability to displace [125I]- Tyr-8 substance P.
# Summary of the method: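 Wild-type and Gln165Ala mutant human NK1 receptors expressed in CHO cells were tested in the same binding conditions. Ligand displacement of [125I]Tyr8-substance P was compared between the two receptors to give the affinity ratio.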
Structure (SMILES),IC50 (Substance-P receptor [1]) [nM],IC50 (Substance-P receptor [2]) [nM],IC50 (Substance-P receptor [3]) [nM]
CN(C)CCC(=O)N[C@@H](Cc1c[nH]c2ccccc12)C(=O)CCc1cc(C(F)(F)F)cc(C(F)(F)F)c1,1.8,,
CC(=O)N[C@@H](Cc1c[nH]c2ccccc12)C(=O)CCc1cc(C(F)(F)F)cc(C(F)(F)F)c1,3.1,10,2.2
CN(C)CC(=O)N[C@@H](Cc1c[nH]c2ccccc12)C(=O)CCc1cc(C(F)(F)F)cc(C(F)(F)F)c1,5,,
